Experimental findings from US20050020565A1, “CCK-1 receptor modulators” (priority 2003, published 2005) are described below.

Sequences of proteins named here, by UniProt entry; tags and fusion partners are left off.
UniProt P32238, whole entry: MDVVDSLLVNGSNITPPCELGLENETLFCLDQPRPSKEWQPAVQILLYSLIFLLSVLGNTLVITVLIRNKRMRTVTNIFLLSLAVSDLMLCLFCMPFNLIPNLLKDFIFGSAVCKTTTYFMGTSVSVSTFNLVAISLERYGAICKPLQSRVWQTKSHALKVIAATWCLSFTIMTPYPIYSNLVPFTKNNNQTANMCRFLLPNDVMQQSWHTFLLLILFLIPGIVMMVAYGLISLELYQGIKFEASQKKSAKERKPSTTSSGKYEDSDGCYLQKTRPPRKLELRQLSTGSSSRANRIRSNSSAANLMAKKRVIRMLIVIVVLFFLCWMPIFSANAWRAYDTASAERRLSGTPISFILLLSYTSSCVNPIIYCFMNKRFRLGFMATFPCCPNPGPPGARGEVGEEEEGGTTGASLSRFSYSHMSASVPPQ

The test addresses CCK-1 receptor (Homo sapiens, UniProt P32238). Briefly: CCK-1 receptor radioligand binding assay ([125I]-BH-CCK-8S displacement, membranes of stably transfected CHO-K1 cells). Particulars: membranes of CHO-K1 cells stably transfected with CCK-1 receptor, 0.3 μM PD-134,308 present. The method, then:
CHO-K1 cells that had undergone-stable transfection with the CCK-1 receptor were grown in DMEM supplemented with L-glutamine (2 mM), penicillin (50 units/mL) and streptomycin (50 μg/mL). Cells were cultured under continuous G418 selection (2 mM) and were harvested using a rubber cell scraper. CHO-K1 cells were sub-cultured a maximum of ten times before being reseeded from the original stocks.
Membranes were prepared from the stably transfected CHO-K1 cells. Frozen cell pellets (−40° C.) were thawed in 14 mL of buffer A (10 mM HEPES, 130 mM NaCl, 4.7 mM KCl, 5 mM MgCl, 1 mM EGTA and 15.4 mg/100 mL bacitracin at pH 7.2), adapted from Harper et al. (Br. J. Pharmacol. (1996) 118, pp 1717-1726). The thawed pellets were homogenized using a Polytron PT-10 (7×1 s). […]
All assays were conducted in 96-well plates (GF/B millipore filter plates) using buffer A, with 0.3 μM PD-134,308, for the dilutions. […] Total binding of [1251]-BH—CCK-8S was determined in the presence of 15 μL of buffer A. Non-specific binding of [1 251]-BH—CCK-8S was determined in the presence of 15 μL of 100 μM 2-naphthalenesulphonyl L-aspartyl-(2-phenethyl)amide (2-NAP: see R. A. Hull et al., Br. J. Pharmacol. (1993) 108, pp 734-740), a CCK-1 receptor selective antagonist that is structurally unrelated to the radioligand [1251]-BH—CCK-8S. […] Bound radioactivity was determined using a gamma counter (count time=1 min). […]

A word on the pKi: it is the negative decadic logarithm of the Ki, by convention in mol/L. A lower pKi goes with a high Ki. For the molecule `COc1ccc(-n2nc(CC(C(=O)O)c3cccc(OC)c3)cc2-c2ccc(C)cc2)cc1` (stereo not shown), the negative logarithm of the Ki (pKi) turned out to be 7.8.
